Test: Physical stability in cartridges under static conditions, visual inspection
Details: acidic pH, no co-polyamino acid

Structure (SMILES): CSCC[C@H](NC(=O)[C@H](CC(C)C)NC(=O)[C@H](Cc1c[nH]c2ccccc12)NC(=O)[C@H](CCC(N)=O)NC(=O)[C@@H](NC(=O)[C@H](Cc1ccccc1)NC(=O)[C@H](CC(=O)O)NC(=O)[C@H](CCC(N)=O)NC(=O)[C@H](C)NC(=O)[C@H](CCCN=C(N)N)NC(=O)[C@H](CCCN=C(N)N)NC(=O)[C@H](CO)NC(=O)[C@H](CC(=O)O)NC(=O)[C@H](CC(C)C)NC(=O)[C@H](Cc1ccc(O)cc1)NC(=O)[C@H](CCCCN)NC(=O)[C@H](CO)NC(=O)[C@H](Cc1ccc(O)cc1)NC(=O)[C@H](CC(=O)O)NC(=O)[C@H](CO)NC(=O)[C@@H](NC(=O)[C@H](Cc1ccccc1)NC(=O)[C@@H](NC(=O)CNC(=O)[C@H](CCC(N)=O)NC(=O)[C@H](CO)NC(=O)[C@@H](N)Cc1c[nH]cn1)[C@@H](C)O)[C@@H](C)O)C(C)C)C(=O)N[C@@H](CC(N)=O)C(=O)N[C@H](C(=O)O)[C@@H](C)O [glucagon]
- stability of the glucagon solution at 37° C. (1 mg/mL): 2 days
- stability of the glucagon solution at 37° C. (2 mg/mL): 2 days

From US20200306346A1 (ADOCIA, priority 2017, published 2020)
